Experimental data reported in PMC11760248 (Research Square, 2025).

Sequences of proteins named here, by UniProt entry; tags and fusion partners are left off. Residues count along the entry.
UniProt A0A1D8PKB4, 37-345 limits assumed: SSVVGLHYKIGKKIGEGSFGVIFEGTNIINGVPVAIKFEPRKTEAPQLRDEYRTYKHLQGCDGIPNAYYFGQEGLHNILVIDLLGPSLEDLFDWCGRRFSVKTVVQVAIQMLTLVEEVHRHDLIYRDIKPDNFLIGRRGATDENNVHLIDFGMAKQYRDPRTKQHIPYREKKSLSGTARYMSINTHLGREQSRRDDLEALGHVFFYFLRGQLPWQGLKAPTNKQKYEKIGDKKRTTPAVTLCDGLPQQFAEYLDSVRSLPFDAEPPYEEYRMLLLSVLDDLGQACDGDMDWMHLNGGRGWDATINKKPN

Molecular target: Yck2 (Candida albicans, UniProt A0A1D8PKB4)

Oc1ccn2nc(-c3ccc(F)cc3)c(-c3ccncc3)c2c1
IC50: 110 nM

Oc1ccc2c(-c3ccncc3)c(-c3ccc(F)cc3)nn2c1
IC50: 100 nM
